The list shows a part of the results, in another mix than the full data. Activity calls are given as the source filed them.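 How the source made its calls: active means inhibition above a per-campaign cutoff equal to the mean of compounds falling between control-based bounds plus 3 SD (cut at about 20% in these data); inactive means the rest.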

Protein sequences, listed by entry. Tags and fused reporters are not part of them. Residues count along the entry.
UniProt O14672, 214-748 limits assumed: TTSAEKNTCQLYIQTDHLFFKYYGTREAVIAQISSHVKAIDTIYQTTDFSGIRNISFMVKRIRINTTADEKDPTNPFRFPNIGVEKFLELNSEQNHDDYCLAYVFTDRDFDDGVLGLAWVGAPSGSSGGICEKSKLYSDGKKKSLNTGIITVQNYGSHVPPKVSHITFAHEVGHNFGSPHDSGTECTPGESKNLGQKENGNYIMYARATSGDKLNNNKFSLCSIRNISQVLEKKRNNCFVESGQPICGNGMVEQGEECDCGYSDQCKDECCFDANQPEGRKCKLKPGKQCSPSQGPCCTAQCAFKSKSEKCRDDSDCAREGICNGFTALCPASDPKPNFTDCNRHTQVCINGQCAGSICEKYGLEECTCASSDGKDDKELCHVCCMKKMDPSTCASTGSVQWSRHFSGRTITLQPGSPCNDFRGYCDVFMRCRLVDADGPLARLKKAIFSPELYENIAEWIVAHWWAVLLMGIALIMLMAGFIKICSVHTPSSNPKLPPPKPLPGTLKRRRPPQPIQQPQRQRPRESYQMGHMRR

The target in this assay is Disintegrin and metalloproteinase domain-containing protein 10 (Homo sapiens) (UniProt O14672). Kind of assay: human ADAM10 inhibitors, primary screen, biochemical, QFRET, HTS (AID 720582).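 Further: 0% = DMSO wells while the 100% control is not disclosed.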 Conditions: recombinant ADAM10, EDANS/DABCYL FRET peptide cleavage, 3 h; at 7 µM; active compounds read high.
For `O=C(NCC1(N2CCCCC2)CCCCC1)c1cccc(C(F)(F)F)c1`, the inhibition was inactive: -3.29%.
Consider `O=C(NCC1(N2CCOCC2)CCCCC1)c1cc(=O)[nH]c2ccccc12`, for which the inhibition was inactive: -7.43%.
The value for `COc1cc(C(=O)NCC2(N3CCCCC3)CCCCC2)ccc1OC(F)F` was inactive: -7.14%; that for `COc1ccc(NC2CCN(C(=O)OC(C)(C)C)CC2)cc1` was inactive: -0.9%.
The value for `CC(C)c1ccc(C(=O)NCC2(N3CCOCC3)CCCCC2)cc1` was inactive: 2.04%; that for `CN1CCN(CCOC(=O)C(O)(c2ccccc2)c2ccccc2)CC1` was inactive: -3.83%.
The same measure for `CCCCn1nnnc1C(c1cccc2ccccc12)N1CCC(n2c(=O)[nH]c3ccccc32)CC1` (stereo not given): active: 21.9%.
For `CC(C)(C)n1nnnc1C(c1ccccc1OC(F)(F)F)N1CCC(n2c(=O)[nH]c3ccccc32)CC1` (stereo not given), the inhibition is inactive: 2.32%.
The value for `O=C(NCC1(N2CCCCC2)CCCCC1)c1ccc(OC(F)F)cc1` was inactive: -10.7%; that for `CCN1CCC(Nc2ccc(Cl)cc2)CC1` was inactive: -4.37%; that for `O=c1[nH]c2ccccc2n1C1CCN(C(c2ccccc2OC(F)(F)F)c2nnnn2C2CCCC2)CC1` (stereo not given) was inactive: -0.98%.
The value for `N#CC1(Nc2ccccc2)CCN(CCc2ccccc2)CC1` was inactive: -5.46%.
Regarding `O=C(NCC1(N2CCCCC2)CCCCC1)c1cccc([N+](=O)[O-])c1`, the inhibition is inactive: -1.72%.
In the case of `CSc1ccc(C(=O)NCC2(N3CCOCC3)CCCCC2)cc1`, the inhibition was inactive: 13.6%.
The same measure for `CN1CCC(Nc2cccc(F)c2)CC1`: inactive: 3.63%.
As for `O=C(NCC1(N2CCCCC2)CCCCC1)c1cncc(Br)c1`, the inhibition is inactive: -3.42%.
As for `COc1ccc(C(c2nnnn2C2CCCC2)N2CCC(n3c(=O)[nH]c4ccccc43)CC2)cc1` (stereo not given), the inhibition was inactive: 1.34%.
As to `Cc1ccc(C(=O)NCC2(N(C)C)CCCCC2)o1`, the inhibition was inactive: -1.07%.
Turning to `CCCOc1ccc(C(=O)NCC2(N(C)C)CCCCC2)cc1OC`, the inhibition is inactive: 2.67%.
As for `CC(C)c1ccc(NC2CCN(C(=O)OC(C)(C)C)CC2)cc1`, the inhibition is inactive: 0.94%.
Consider `COc1ccc(CN(CCCl)CCCl)cc1Cl`, for which the inhibition is inactive: -17.1%.
The same measure for `COC(=O)C1(Nc2ccccc2)CCN(Cc2ccccc2)CC1`: inactive: 1.9%; for `CN(C)c1cccc(C(=O)NCC2(N3CCCCC3)CCCCC2)c1`: inactive: -33.8%.
The value for `COc1cc(OC)c(C(=O)NCC2(N(C)C)CCCCC2)cc1OC` was inactive: -12.5%; that for `CCC(c1nnnn1C(C)(C)C)N1CCC(n2c(=O)[nH]c3ccccc32)CC1` (stereo not given) was inactive: -2.2%; that for `O=C(NCC1(N2CCOCC2)CCCCC1)c1cc(F)c(F)cc1Cl` was inactive: -14.3%.
The same measure for `CCCCn1nnnc1C(c1ccnc2ccccc12)N1CCC(n2c(=O)[nH]c3ccccc32)CC1` (stereo not given): inactive: 13.8%; for `O=C(NCC1(N2CCCCC2)CCCCC1)c1ccc(Cl)nc1`: inactive: -19%.
For `O=c1[nH]c2ccccc2n1C1CCN(C(c2ccccc2OC(F)(F)F)c2nnnn2C2CCCCC2)CC1` (stereo not given), the inhibition is inactive: 1.34%.
The value for `Cc1cc(C)cc(N(C(=O)c2ccccc2)C2CCN(C(=O)OC(C)(C)C)CC2)c1` was inactive: 5.86%; that for `O=C(NCC1(N2CCOCC2)CCCCC1)c1cc2ccccc2o1` was inactive: -2.7%; that for `O=C(NCC1(N2CCCCC2)CCCCC1)c1ccc(Cl)s1` was inactive: -14.8%.
Turning to `N#CC1(Nc2ccccc2)CCN(Cc2ccccc2)CC1`, the inhibition was inactive: -0.56%.
`O=c1[nH]c2ccccc2n1C1CCN(C(c2cc3ccccc3o2)c2nnnn2C2CCCCC2)CC1` (stereo not given): the inhibition is inactive: -6.93%.
The same measure for `O=C(OC1CN2CCC1CC2)C1c2ccccc2Oc2ccccc21` (stereo not given): inactive: -0.4%; for `COc1ccc(Cl)cc1C(=O)NCC1(N2CCOCC2)CCCCC1`: inactive: 6.05%; for `CCOC(=O)N1CCC(Nc2ccc(OC)cc2)CC1`: inactive: -0.9%.
The value for `CCCCn1nnnc1C(c1ccc(OC)cc1)N1CCC(n2c(=O)[nH]c3ccccc32)CC1` (stereo not given) was inactive: -6.5%.
The value for `COc1ccc(C(=O)NCC2(N3CCCCC3)CCCCC2)cc1` was inactive: 0.31%; that for `COc1ccc(C(=O)NCC2(N3CCCCC3)CCCCC2)c(OC)c1OC` was inactive: -2.85%; that for `CC(C)(C)OC(=O)N1CCC(N(C(=O)c2ccccc2)c2ccc(F)cc2)CC1` was inactive: -0.75%.
As to `CCC(c1nnnn1C1CCCC1)N1CCC(n2c(=O)[nH]c3ccccc32)CC1` (stereo not given), the inhibition was inactive: -10.3%.
The same measure for `O=C(NCC1(N2CCCCC2)CCCCC1)c1ccc(=O)[nH]c1`: inactive: -0.85%; for `CCCCn1nnnc1C(CC)N1CCC(n2c(=O)[nH]c3ccccc32)CC1` (stereo not given): inactive: -6.55%; for `O=C(NCC1(N2CCCCC2)CCCCC1)c1cccs1`: inactive: -6.02%.
As to `CCCCn1nnnc1C(c1cccs1)N1CCC(n2c(=O)[nH]c3ccccc32)CC1` (stereo not given), the inhibition was inactive: -5.22%.
The value for `CSc1ccccc1C(=O)NCC1(N2CCCCC2)CCCCC1` was inactive: -13%.
The value for `Cc1cccc(NC2(C#N)CCN(Cc3ccccc3)CC2)c1` was inactive: -11.8%.
The same measure for `O=c1[nH]c2ccccc2n1C1CCN(C(c2ccccc2)c2nnnn2C2CCCCC2)CC1` (stereo not given): inactive: 0.28%; for `CCOC(=O)N1CCC(Nc2cccc(C)c2)CC1`: inactive: -4.92%.
As to `COc1cc(C(=O)NCC2(N(C)C)CCCCC2)ccc1OC(F)F`, the inhibition is inactive: -9.91%.
The same measure for `O=c1[nH]c2ccccc2n1C1CCN(C(c2cccc3ccccc23)c2nnnn2C2CCCC2)CC1` (stereo not given): inactive: -0.58%; for `CC(C)(C)n1nnnc1C(c1ccccc1)N1CCC(n2c(=O)[nH]c3ccccc32)CC1` (stereo not given): inactive: 1.14%; for `O=C1CCN(Cc2ccccc2)CC1`: inactive: -21.1%.
`CCOc1ccc(C)cc1CN(CCCl)CCCl`: the inhibition is inactive: 5.11%.
The value for `CCCCOc1ccc(C(=O)NCC2(N3CCOCC3)CCCCC2)cc1` was inactive: -2.34%.
With `CCCCn1nnnc1C(c1cc2ccccc2o1)N1CCC(n2c(=O)[nH]c3ccccc32)CC1` (stereo not given), the inhibition was inactive: -0.96%.
The value for `O=P1(N(CCCl)CCCl)SCCCS1` was inactive: -11%; that for `O=C(NCC1(N2CCCCC2)CCCCC1)c1ccc(F)cc1` was inactive: -13.7%; that for `CCOC(=O)N1CCC(Nc2ccc(F)cc2)CC1` was inactive: 3.47%.
The same measure for `COc1ccc(NC2CCN(CCc3ccccc3)CC2)c(OC)c1`: inactive: 3.54%; for `Cc1ccccc1NC1(C#N)CCN(Cc2ccccc2)CC1`: inactive: -1.16%; for `COc1ccc(C(c2nnnn2C2CCCCC2)N2CCC(n3c(=O)[nH]c4ccccc43)CC2)cc1` (stereo not given): inactive: 2.94%.
The same measure for `CCN1CCC(Nc2cccc(F)c2)CC1`: inactive: 4.16%; for `CC(C)(C)n1nnnc1C(c1ccnc2ccccc12)N1CCC(n2c(=O)[nH]c3ccccc32)CC1` (stereo not given): inactive: -2.31%.
On to `O=C(NCC1(N2CCCCC2)CCCCC1)c1ccco1`, for which the inhibition is inactive: -5.86%.
Regarding `CN(C)c1ccc(C(=O)NCC2(N3CCCCC3)CCCCC2)cc1`, the inhibition is inactive: -5%.
Take `Cn1c(=O)[nH]cc(N(CCCl)CCCl)c1=O`: the inhibition is inactive: -2.71%.
The value for `COc1cccc(C(c2nnnn2C2CCCCC2)N2CCC(n3c(=O)[nH]c4ccccc43)CC2)c1OC` (stereo not given) was inactive: 19.3%.
The value for `CC(=O)N(c1ccccc1)C1CCNCC1` was inactive: -8.3%.
The value for `CCC(c1nnnn1C1CCCCC1)N1CCC(n2c(=O)[nH]c3ccccc32)CC1` (stereo not given) was inactive: 5.18%; that for `COc1cc(OC)cc(C(=O)NCC2(N3CCCCC3)CCCCC2)c1` was inactive: -9.22%; that for `O=c1[nH]c2ccccc2n1C1CCN(C(c2ccnc3ccccc23)c2nnnn2C2CCCCC2)CC1` (stereo not given) was inactive: 5.85%.
As to `Cc1ccc(C(=O)NCC2(N3CCCCC3)CCCCC2)o1`, the inhibition is inactive: -4.13%.
The value for `Fc1ccccc1NC1CCN(Cc2ccccc2)CC1` was inactive: 8%; that for `Cc1ccc(NC2(C#N)CCN(Cc3ccccc3)CC2)cc1` was inactive: 0.65%; that for `COc1cccc(C(=O)N(c2cc(C)cc(C)c2)C2CCN(C(=O)OC(C)(C)C)CC2)c1` was inactive: 3.69%.
The same measure for `COc1cc(OC)cc(C(=O)NCC2(N3CCOCC3)CCCCC2)c1`: inactive: -2.34%; for `COc1cccc(C(c2nnnn2C2CCCC2)N2CCC(n3c(=O)[nH]c4ccccc43)CC2)c1OC` (stereo not given): inactive: 6.72%.
The same measure for `CCC(CO)(C(=O)OC1CN2CCC1CC2)c1ccccc1` (stereo not given): inactive: 3.13%.
Consider `CN1CCC(Nc2ccc(Cl)cc2)CC1`, for which the inhibition is inactive: -1.79%.
With `CCOc1ncccc1C(=O)NCC1(N2CCOCC2)CCCCC1`, the inhibition was inactive: -0.19%.
The same measure for `CN1CCC(Nc2ccc(F)c(Cl)c2)CC1`: inactive: -6.25%; for `CC(C)(C)OC(=O)N1CCC(Nc2ccccc2)CC1`: inactive: -6.46%; for `NN(c1ccccc1)C1CCN(CCc2ccccc2)CC1`: inactive: -2.67%.
The value for `O=C(O)C1(Nc2ccccc2)CCN(Cc2ccccc2)CC1` was inactive: -7.71%; that for `O=c1[nH]c2ccccc2n1C1CCN(C(c2cc3ccccc3o2)c2nnnn2C2CCCC2)CC1` (stereo not given) was inactive: 7.36%.
The same measure for `CCCOc1ccc(C(=O)NCC2(N(C)C)CCCCC2)cc1`: inactive: 2.39%; for `CCOC(=O)N1CCC(Nc2ccc(C)cc2)CC1`: inactive: 0.37%.
As to `COc1cccc(C(c2nnnn2C(C)(C)C)N2CCC(n3c(=O)[nH]c4ccccc43)CC2)c1OC` (stereo not given), the inhibition is inactive: 5.07%.
In the case of `N/C(=N\O)c1c(N)no[n+]1[O-]`, the inhibition is inactive: 1.3%.
The value for `O=C(OC1CN2CCC1CC2)C1c2ccccc2C=Cc2ccccc21` (stereo not given) was inactive: -4.08%; that for `O=c1[nH]c2ccccc2n1C1CCN(C(c2cccs2)c2nnnn2C2CCCC2)CC1` (stereo not given) was inactive: 11.8%; that for `CCCCn1nnnc1C(c1cccc(OC)c1OC)N1CCC(n2c(=O)[nH]c3ccccc32)CC1` (stereo not given) was inactive: 10%.
The same measure for `CCCCn1nnnc1C(c1ccccc1)N1CCC(n2c(=O)[nH]c3ccccc32)CC1` (stereo not given): inactive: 5.84%; for `COc1cc(C(=O)NCC2(N3CCOCC3)CCCCC2)cc(OC)c1C`: inactive: -24.1%.
The same measure for `O=C(NCC1(N2CCOCC2)CCCCC1)c1cc(Br)ccc1Cl`: inactive: -15.6%.
Consider `O=c1[nH]c2ccccc2n1C1CCN(C(c2cccs2)c2nnnn2C2CCCCC2)CC1` (stereo not given), for which the inhibition is inactive: -5.2%.
The value for `NC(=O)C1(Nc2ccccc2)CCN(Cc2ccccc2)CC1` was inactive: 0.45%; that for `COc1ccc(C(=O)NCC2(N3CCOCC3)CCCCC2)cc1OC` was inactive: -2.55%; that for `O=c1[nH]c2ccccc2n1C1CCN(C(c2ccnc3ccccc23)c2nnnn2C2CCCC2)CC1` (stereo not given) was inactive: 12.6%.
The same measure for `CN(C)C1(CNC(=O)c2cccc(C#N)c2)CCCCC1`: inactive: -5.27%; for `C/C(N)=N\P(=O)(Oc1ccccc1)Oc1ccccc1`: inactive: 8.66%; for `c1ccc(CN2CCC(Nc3ccccc3)CC2)cc1`: inactive: 0.29%.
The same measure for `O=c1[nH]c2ccccc2n1C1CCN(C(c2ccccc2)c2nnnn2C2CCCC2)CC1` (stereo not given): inactive: -12.7%.
For `CCCN1CCC(Nc2cc(OC)cc(OC)c2)CC1`, the inhibition is inactive: -4.08%.
The same measure for `Cc1cc(N(CCCl)CCCl)ccc1C=O`: inactive: -12.7%; for `CC(C)(C)n1nnnc1C(c1cccc2ccccc12)N1CCC(n2c(=O)[nH]c3ccccc32)CC1` (stereo not given): inactive: 14.7%; for `N#Cc1ccc(C(=O)NCC2(N3CCCCC3)CCCCC2)cc1`: inactive: -1.23%.
The same measure for `CC(C)(C)OC(=O)N1CCC(N(C(=O)c2ccccc2)c2ccc(Cl)cc2)CC1`: inactive: 3.46%.

Usually inhibition stands for the relative decrease from the control value, in per cent.
